Consider 1 compound from ChEMBL document CHEMBL2057134, “Small molecule tertiary amines as agonists of the nuclear hormone receptor Rev-erbα” (Bioorg Med Chem Lett, 2012).

The target of this assay is T1, Nuclear receptor subfamily 1 group D member 1 (Homo sapiens, UniProt P20393).
T1 sequence (P20393 whole entry): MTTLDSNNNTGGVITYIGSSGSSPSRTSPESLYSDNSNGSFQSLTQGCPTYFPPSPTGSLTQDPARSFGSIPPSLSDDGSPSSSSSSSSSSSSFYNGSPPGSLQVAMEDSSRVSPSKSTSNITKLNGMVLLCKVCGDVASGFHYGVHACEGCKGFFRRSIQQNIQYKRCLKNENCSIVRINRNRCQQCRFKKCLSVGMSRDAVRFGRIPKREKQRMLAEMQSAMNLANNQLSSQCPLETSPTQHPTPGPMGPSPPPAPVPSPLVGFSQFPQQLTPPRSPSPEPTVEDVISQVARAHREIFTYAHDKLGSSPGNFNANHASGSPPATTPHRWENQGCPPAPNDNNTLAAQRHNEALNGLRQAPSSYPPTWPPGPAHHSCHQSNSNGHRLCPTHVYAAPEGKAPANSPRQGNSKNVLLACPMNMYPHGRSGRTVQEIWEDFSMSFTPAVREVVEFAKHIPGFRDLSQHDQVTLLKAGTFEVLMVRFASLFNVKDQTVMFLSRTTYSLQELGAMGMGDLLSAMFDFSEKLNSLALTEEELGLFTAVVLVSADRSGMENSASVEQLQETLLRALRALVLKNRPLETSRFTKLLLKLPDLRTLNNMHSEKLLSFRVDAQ
Description: Agonist activity at Rev-Erbalpha expressed in HEK293 cells coexpressing […] promoter assessed as repression of transcription after 24 hrs by dual-Glo luciferase assay. It counts as functional, cell-based. In a few lines: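 Cells co-transfected with full-length Rev-erbα expression plasmid and Bmal1 promoter-driven luciferase reporter. Compounds first screened at 1 and 10 μM; those active at 10 μM titrated in eleven-point dose-response to derive EC50. Renilla luciferase used for normalization and toxicity monitoring. Average of 2 or more experiments.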

Each structure is given as a SMILES string.

Broadly, the EC50 is the concentration giving half of the maximal effect.

With `CCOC(=O)N1CCC(CN(Cc2ccc(Cl)cc2)Cc2ccc([N+](=O)[O-])s2)C1` (racemic) [SR9009], the EC50 amounted to 700 nM.
